SMILES strings stand for the structures. Read-outs that look alike come from different tables or passages of the source.

The IC50 is the concentration needed to halve the response being measured.

In test [1] the test system is MA9-FLT3-ITD cells. The test can be described thus: cells. It counts as cell-based.
For test [2], the system named is MA9-FLT3-ITD cells. The test can be described thus: AnnexinV viability and recovery of MA9-FLT3-ITD cells. It counts as cell-based, human. The following applies: 72 hours treatment, washed, replated with cytokines.
The mark [3] stands for this setting: Homo sapiens; average of three runs against MLL-AF9/FLT3-ITD cells, Cell Titer Glo; read-out: IC50.
Where [4] appears, read: Homo sapiens; read-out: FLT3 ITD IC50.
Where [5] appears, read: Homo sapiens, MLL-AF9, average of three runs against MLL-AF9/FLT3-ITD cells, Cell Titer Glo.
Setting [6] is: Homo sapiens, read-out: FLT3 ITD IC50.

For `c1cc(NC2CNC2)nc(-c2cnc3ccccn23)c1` [Compound I-12, N-(azetidin-3-yl)-6-(imidazo[1,2-a]pyridin-3-yl)pyridin-2-amine], the IC50 with MA9-FLT3-ITD cells [1] (setting [3]) and in the test on MA9-FLT3-ITD cells [1] (setting [4]) was 260 nM throughout. For `Clc1ccc2ncc(-c3cccc(NC4CNC4)n3)n2c1` [Compound I-15, N-(azetidin-3-yl)-6-(6-chloroimidazo[1,2-a]pyridin-3-yl)pyridin-2-amine], in the test with MA9-FLT3-ITD cells [1] (setting [3]), the IC50 was 45 nM. Take `Clc1ccc2ncc(-c3cccc(NC4CCNC4)n3)n2c1` (stereo not drawn) [Compound I-16, 6-(6-chloroimidazo[1,2-a]pyridin-3-yl)-N-(pyrrolidin-3-yl)pyridin-2-amine]: the half-inhibitory concentration (IC50) with MA9-FLT3-ITD cells [1] (setting [3]) and in the test with MA9-FLT3-ITD cells [1] (setting [4]) was 30 nM each time. Besides, the “fold improvement of potency compared to compound I-15” value in the test on MA9-FLT3-ITD cells [1] (MA9-FLT3-ITD cells) is reported as around 2 fold. As for `COc1cc2ncc(-c3cccc(NC4CCNC4)n3)n2cc1-c1cn[nH]c1` (stereo not drawn) [Compound I-20, 6-(7-methoxy-6-(1H-pyrazol-4-yl)imidazo[1,2-a]pyridin-3-yl)-N-(pyrrolidin-3-yl)pyridin-2-amine], the values for the IC50 with MA9-FLT3-ITD cells [1] (setting [5]) and with MA9-FLT3-ITD cells [1] (setting [6]) were 5 nM and 40 nM, respectively. The “recovery of cell viability after removal of compound” value with MA9-FLT3-ITD cells [2] is on record as “remained apoptotic”.

Consider `COc1cc2ncc(-c3cccc(NC4CCNC4)n3)n2cc1Cl` (stereo not drawn) [Compound I-21, 6-(6-chloro-7-methoxyimidazo[1,2-a]pyridin-3-yl)-N-(pyrrolidin-3-yl)pyridin-2-amine], for which the 50% inhibitory concentration (IC50) in the test on MA9-FLT3-ITD cells [1] (setting [3]) was 6 nM. The “fold improvement of potency compared to compound I-15” value in the test with MA9-FLT3-ITD cells [1] (MA9-FLT3-ITD cells) is reported as around 8 fold. As for `COc1cc2ncc(-c3cccc(NC4CCNC4)n3)n2cc1-c1ccncc1` (stereo not drawn) [Compound I-23, 6-(7-methoxy-6-(pyridin-4-yl)imidazo[1,2-a]pyridin-3-yl)-N-(pyrrolidin-3-yl)pyridin-2-amine], the IC50 in the test on MA9-FLT3-ITD cells [1] (setting [5]) and in the test with MA9-FLT3-ITD cells [1] (setting [6]) was 15 nM in each case. Turning to `COc1cc2ncc(-c3cccc(NC4CCNC4)n3)n2cc1-c1c(C)n[nH]c1C` (stereo not drawn) [Compound I-25, 6-(6-(3,5-dimethyl-1H-pyrazol-4-yl)-7-methoxyimidazo[1,2-a]pyridin-3-yl)-N-(pyrrolidin-3-yl)pyridin-2-amine], the IC50 with MA9-FLT3-ITD cells [1] (setting [5]) and in the test on MA9-FLT3-ITD cells [1] (setting [6]) was 380 nM throughout. In the case of `COc1cc2ncc(-c3cccc(NC4CCNC4)n3)n2cc1-c1cnn(CCN2CCOCC2)c1` (stereo not drawn) [Compound I-26], the half-maximal inhibitory concentration (IC50) with MA9-FLT3-ITD cells [1] (setting [6]) is 20 nM. Consider `COc1cc2ncc(-c3cccc(NC4CCNC4)n3)n2cc1-c1cc[nH]c1` (stereo not drawn) [Compound I-27, 6-(7-methoxy-6-(1H-pyrrol-3-yl)imidazo[1,2-a]pyridin-3-yl)-N-(pyrrolidin-3-yl)pyridin-2-amine], for which the IC50 with MA9-FLT3-ITD cells [1] (setting [5]) and in the test on MA9-FLT3-ITD cells [1] (setting [6]) was 30 nM throughout. Turning to `COc1cc2ncc(-c3cccc(NC4CCNC4)n3)n2cc1-c1c(C)noc1C` (stereo not drawn) [Compound I-28, 6-(6-(3,5-dimethylisoxazol-4-yl)-7-methoxyimidazo[1,2-a]pyridin-3-yl)-N-(pyrrolidin-3-yl)pyridin-2-amine], the IC50 with MA9-FLT3-ITD cells [1] (setting [5]) and in the test with MA9-FLT3-ITD cells [1] (setting [6]) was 140 nM each time.

For `COc1cc2ncc(-c3cccc(NC4CCCNC4)n3)n2cc1-c1cn[nH]c1` (stereo not drawn) [Compound I-29, 6-(7-methoxy-6-(1H-pyrazol-4-yl)imidazo[1,2-a]pyridin-3-yl)-N-(piperidin-3-yl)pyridin-2-amine], the IC50 in the test with MA9-FLT3-ITD cells [1] (setting [5]) and in the test on MA9-FLT3-ITD cells [1] (setting [6]) was 15 nM in each case. Besides, the “fold decrease of potency compared to compound I-20” value in the test with MA9-FLT3-ITD cells [1] (MA9-FLT3-ITD cells) was 3 fold. Take `COc1cc2ncc(-c3cccc(N(C)C4CCNC4)n3)n2cc1-c1cn[nH]c1` (stereo not drawn) [Compound I-31, 6-(7-methoxy-6-(1H-pyrazol-4-yl)imidazo[1,2-a]pyridin-3-yl)-N-methyl-N-(pyrrolidin-3-yl)pyridin-2-amine]: the IC50 in the test with MA9-FLT3-ITD cells [1] (setting [5]) and with MA9-FLT3-ITD cells [1] (setting [6]) was 298 nM throughout. Consider `COc1cc2ncc(-c3cccc(OC4CCNC4)n3)n2cc1-c1cn[nH]c1` (stereo not drawn) [Compound I-32, 7-methoxy-6-(1H-pyrazol-4-yl)-3-(6-(pyrrolidin-3-yloxy)pyridin-2-yl)imidazo[1,2-a]pyri-dine], for which the IC50 in the test on MA9-FLT3-ITD cells [1] (setting [5]) and with MA9-FLT3-ITD cells [1] (setting [6]) was 166 nM each time. `COc1cc2ncc(-c3nc(NC4CCNC4)c(F)cc3F)n2cc1-c1cn[nH]c1` (stereo not drawn) [Compound I-33, 3,5-difluoro-6-(7-methoxy-6-(1H-pyrazol-4-yl)imidazo[1,2-a]pyridin-3-yl)-N-(pyrrolidin-3-yl)pyridin-2-amine]: the IC50 in the test on MA9-FLT3-ITD cells [1] (setting [5]) and in the test on MA9-FLT3-ITD cells [1] (setting [6]) was 53 nM in each case. In the test with MA9-FLT3-ITD cells [1] (MA9-FLT3-ITD cells), the “fold decrease of potency compared to compound I-20” value stood at 10 fold. For the molecule `Clc1cn2c(-c3cccc(NC4CCNC4)n3)cnc2cc1OCCN1CCOCC1` (stereo not drawn) [Compound I-40], the IC50 with MA9-FLT3-ITD cells [1] (setting [6]) was 8 nM. Consider `c1cc(NC2CCNC2)nc(-c2cnc3cc(OCCN4CCOCC4)c(-c4cn[nH]c4)cn23)c1` (stereo not drawn) [Compound I-41, 6-(7-(2-morpholinoethoxy)-6-(1H-pyrazol-4-yl)imidazo[1,2-a]pyridin-3-yl)-N-(pyrrolidin-3-yl)pyridin-2-amine], for which the IC50 in the test on MA9-FLT3-ITD cells [1] (setting [5]) and with MA9-FLT3-ITD cells [1] (setting [6]) was 68 nM each time. Turning to `COc1cc(Cl)cn2c(-c3cccc(NC4CNC4)n3)cnc12` [Compound I-42, N-(azetidin-3-yl)-6-(6-chloro-8-methoxyimidazo[1,2-a]pyridin-3-yl)pyridin-2-amine], the IC50 in the test on MA9-FLT3-ITD cells [1] (setting [5]) and with MA9-FLT3-ITD cells [1] (setting [6]) was 953 nM throughout. `Fc1cc(F)c(-c2cnc3ccc(Cl)cn23)nc1NC1CNC1` [Compound I-47]: in the test on MA9-FLT3-ITD cells [1] (setting [6]), the IC50 turned out to be 157 nM. For the molecule `COc1ccn2c(-c3cccc(NC4CNC4)n3)cnc2c1` [Compound I-50, N-(azetidin-3-yl)-6-(7-methoxyimidazo[1,2-a]pyridin-3-yl)pyridin-2-amine], the IC50 in the test on MA9-FLT3-ITD cells [1] (setting [3]) and in the test with MA9-FLT3-ITD cells [1] (setting [4]) was 120 nM in each case. For the molecule `c1cc(NC2CCNC2)nc(-c2cnc3ccc(-c4cn[nH]c4)cn23)c1` (stereo not drawn) [Compound I-54, 6-(6-(1H-pyrazol-4-yl)imidazo[1,2-a]pyridin-3-yl)-N-(pyrrolidin-3-yl)pyridin-2-amine], in the test with MA9-FLT3-ITD cells [1] (setting [3]), the IC50 stood at 34 nM. Turning to `Cc1cc(NC2CNC2)nc(-c2cnc3ccc(Cl)cn23)c1` [Compound I-55, N-(azetidin-3-yl)-6-(6-chloroimidazo[1,2-a]pyridin-3-yl)-4-methylpyridin-2-amine], the IC50 with MA9-FLT3-ITD cells [1] (setting [3]) and in the test on MA9-FLT3-ITD cells [1] (setting [4]) was 291 nM in each case. As to `Fc1cc(F)c(-c2cnc3ccc(Cl)cn23)nc1NC1CNC1` [Compound I-56, N-(azetidin-3-yl)-6-(6-chloroimidazo[1,2-a]pyridin-3-yl)-3,5-difluoropyridin-2-amine], the IC50 amounted to 157 nM in the test with MA9-FLT3-ITD cells [1] (setting [5]) and 95 nM in the test on MA9-FLT3-ITD cells [1] (read-out: FLT3 ITD IC50).

On to `N#Cc1ccc2ncc(-c3cccc(NC4CNC4)n3)n2c1` [Compound I-60, 3-(6-(azetidin-3-ylamino)pyridin-2-yl)imidazo[1,2-a]pyridine-6-carbonitrile], for which the IC50 in the test on MA9-FLT3-ITD cells [1] (setting [3]) and in the test with MA9-FLT3-ITD cells [1] (setting [4]) was 313 nM each time. For the molecule `Cc1ccn2c(-c3cccc(NC4CNC4)n3)cnc2c1` [Compound I-61, N-(azetidin-3-yl)-6-(7-methylimidazo[1,2-a]pyridin-3-yl)pyridin-2-amine], the IC50 in the test with MA9-FLT3-ITD cells [1] (setting [3]) and with MA9-FLT3-ITD cells [1] (setting [4]) was 442 nM in each case.

Take `Clc1ccn2c(-c3cccc(NC4CNC4)n3)cnc2c1` [Compound I-63, N-(azetidin-3-yl)-6-(7-chloroimidazo[1,2-a]pyridin-3-yl)pyridin-2-amine]: the IC50 with MA9-FLT3-ITD cells [1] (setting [3]) and with MA9-FLT3-ITD cells [1] (setting [4]) was 973 nM in each case.

For the molecule `CCN1CCN(c2ccc3ncc(-c4cccc(NC5CNC5)n4)n3c2)CC1` [Compound I-64], the IC50 with MA9-FLT3-ITD cells [1] (setting [4]) amounted to 2000 nM. As to `COc1cc(NC2CNC2)nc(-c2cnc3ccc(Cl)cn23)c1` [Compound I-67, N-(azetidin-3-yl)-6-(6-chloroimidazo[1,2-a]pyridin-3-yl)-4-methoxypyridin-2-amine], the IC50 with MA9-FLT3-ITD cells [1] (setting [3]) and in the test with MA9-FLT3-ITD cells [1] (setting [4]) was 892 nM in each case. As for `C#Cc1cn2c(-c3cccc(NC4CCNC4)n3)cnc2cc1OC` (stereo not drawn) [Compound I-68, 6-(6-ethynyl-7-methoxyimidazo[1,2-a]pyridin-3-yl)-N-(pyrrolidin-3-yl)pyridin-2-amine], the IC50 with MA9-FLT3-ITD cells [1] (setting [3]) and with MA9-FLT3-ITD cells [1] (setting [4]) was 15 nM throughout.

(Values after US11254667B2 (priority 2016, dated 2022).)
